This note sets out measurements from ChEMBL document CHEMBL3739402, “Chromanones: selective and reversible monoamine oxidase B inhibitors with nanomolar potency” (Medchemcomm, 2015).

Chains of the proteins cited; added tags and fusions are not shown.
UniProt P27338, whole entry: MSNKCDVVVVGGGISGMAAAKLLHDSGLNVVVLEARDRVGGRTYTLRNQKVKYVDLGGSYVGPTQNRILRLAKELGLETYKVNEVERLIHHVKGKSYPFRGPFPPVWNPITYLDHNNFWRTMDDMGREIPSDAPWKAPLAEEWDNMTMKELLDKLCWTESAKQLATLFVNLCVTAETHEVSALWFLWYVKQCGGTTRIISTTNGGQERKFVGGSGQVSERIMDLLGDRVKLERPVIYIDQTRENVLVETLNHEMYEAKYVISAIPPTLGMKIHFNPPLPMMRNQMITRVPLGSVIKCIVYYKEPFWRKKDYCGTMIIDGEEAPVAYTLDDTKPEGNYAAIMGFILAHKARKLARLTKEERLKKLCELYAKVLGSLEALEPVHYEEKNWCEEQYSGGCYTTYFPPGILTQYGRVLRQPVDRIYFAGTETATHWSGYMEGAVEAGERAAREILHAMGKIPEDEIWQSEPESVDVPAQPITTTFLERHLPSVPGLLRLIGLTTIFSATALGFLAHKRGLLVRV

Structures are written as SMILES. Some results are limits rather than exact numbers.

One experiment is filed under the species Homo sapiens. Nature of the experiment: Selectivity index, ratio of IC50 for human MAO-A to IC50 for human MA)-B by Amplex Red MAO assay.
The target of experiment [1] is Amine oxidase [flavin-containing] B (Homo sapiens, UniProt P27338). Nature of the experiment: Inhibition of human MAO-B using p-tyramine as substrate assessed as production of H2O2 from p-tyramine incubated for 15 mins by Amplex Red MAO assay.

For the compound `O=C1CCOc2cc(OCCCc3ccccc3)ccc21`, the Ratio IC50 in the experiment filed under Homo sapiens turned out to be 3.9. `O=C1CCOc2cc(OCCc3ccccc3)ccc21`: the Ratio IC50 in the experiment filed under Homo sapiens amounted to 36.2. Same read-out and setting: the same measure for `CC1(C)CC(=O)c2ccc(OCc3cccc(F)c3)cc2O1`: greater than 1530; for `Cc1ccc(COc2ccc3c(c2)OC(C)(C)CC3=O)cc1`: greater than 883. Consider `CC1(C)CC(=O)c2ccc(OCc3ccc(Br)cc3)cc2O1`, for which, in the experiment listed under Homo sapiens, the Ratio IC50 was greater than 2200. The same measure, in the same setting: then `O=C1CCOc2cc(OCc3ccccc3F)ccc21`, with greater than 1700.

The term IC50 denotes the concentration that gives 50% inhibition. As for `CC1(C)CC(=O)c2ccc(OCc3ccc(F)cc3)cc2O1`, in experiment [1], the IC50 amounted to 10.3 nM.

Turning to `CC1(C)CC(=O)c2ccc(OCc3cccc(Cl)c3)cc2O1`, the Ratio IC50 in the experiment listed under Homo sapiens was greater than 1080.

For the compound `CC1(C)CC(=O)c2ccc(OCc3ccc(Cl)cc3)cc2O1`, in experiment [1], the IC50 came to 44.2 nM. The Ratio IC50 in the experiment listed under Homo sapiens was greater than 2260. Take `CC1(C)CC(=O)c2ccc(OCc3cccc(Br)c3)cc2O1`: in the experiment listed under Homo sapiens, the Ratio IC50 is greater than 1920.

With `CC1(C)CC(=O)c2ccc(OCc3ccccc3)cc2O1`, the Ratio IC50 in the experiment listed under Homo sapiens is greater than 1030. Regarding `O=C1CCOc2cc(OCc3ccc(Cl)cc3)ccc21`, the IC50 in experiment [1] is 33.5 nM. Also, the Ratio IC50 in the experiment filed under Homo sapiens is greater than 2990. With `CC1(C)CC(=O)c2ccc(OCc3ccc(C#N)cc3)cc2O1`, the Ratio IC50 in the experiment listed under Homo sapiens was greater than 1440. For the compound `CC1(C)CC(=O)c2ccc(OCc3ccccc3F)cc2O1`, the Ratio IC50 in the experiment filed under Homo sapiens was greater than 1450. Regarding `O=C1CCOc2cc(OCc3cccc(Br)c3)ccc21`, the Ratio IC50 in the experiment filed under Homo sapiens was greater than 3310.

Turning to `O=C1CCOc2cc(OCc3cccc(Cl)c3)ccc21`, the Ratio IC50 in the experiment filed under Homo sapiens is greater than 2840. Still for that read-out and setting: then `O=C1CCOc2cc(OCc3ccc(Br)cc3)ccc21`, with greater than 4640; and `Cc1cccc(COc2ccc3c(c2)OC(C)(C)CC3=O)c1`, with greater than 1020; and `N#Cc1ccc(COc2ccc3c(c2)OCCC3=O)cc1`, with greater than 2110.

As to `Cc1ccc(COc2ccc3c(c2)OCCC3=O)cc1`, the Ratio IC50 in the experiment filed under Homo sapiens is greater than 1100. The same measure, in the same setting: the same measure for `O=C1CCOc2cc(OCc3ccccc3)ccc21`: greater than 1740.
